# Assay results taken from patent US20230416227A1, “PLASMA KALLIKREIN INHIBITORS” (Merck Sharp & Dohme LLC, priority 2020, published 2023).
# Amino acid sequences for entries named in this document (tags omitted). Residues count along the entry.
# UniProt P03951, 388-625 limits assumed: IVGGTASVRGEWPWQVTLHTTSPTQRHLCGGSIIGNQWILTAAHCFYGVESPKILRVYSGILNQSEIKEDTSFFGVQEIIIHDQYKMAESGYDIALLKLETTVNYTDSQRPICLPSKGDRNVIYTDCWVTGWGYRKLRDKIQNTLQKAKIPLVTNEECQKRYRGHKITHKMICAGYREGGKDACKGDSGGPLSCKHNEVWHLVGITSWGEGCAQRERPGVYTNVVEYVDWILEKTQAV
# UniProt P03951, 19-387 partner limits assumed: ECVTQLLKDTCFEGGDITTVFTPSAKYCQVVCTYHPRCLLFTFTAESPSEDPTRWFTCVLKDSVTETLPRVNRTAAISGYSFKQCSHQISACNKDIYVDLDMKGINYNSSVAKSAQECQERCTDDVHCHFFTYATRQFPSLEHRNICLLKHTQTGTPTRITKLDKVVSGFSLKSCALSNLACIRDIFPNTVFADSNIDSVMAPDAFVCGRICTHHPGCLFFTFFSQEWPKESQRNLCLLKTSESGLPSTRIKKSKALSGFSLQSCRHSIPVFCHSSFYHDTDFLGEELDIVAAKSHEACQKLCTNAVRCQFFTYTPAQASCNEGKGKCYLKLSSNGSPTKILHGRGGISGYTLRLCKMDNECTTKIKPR
# UniProt P03952, 391-638 limits assumed: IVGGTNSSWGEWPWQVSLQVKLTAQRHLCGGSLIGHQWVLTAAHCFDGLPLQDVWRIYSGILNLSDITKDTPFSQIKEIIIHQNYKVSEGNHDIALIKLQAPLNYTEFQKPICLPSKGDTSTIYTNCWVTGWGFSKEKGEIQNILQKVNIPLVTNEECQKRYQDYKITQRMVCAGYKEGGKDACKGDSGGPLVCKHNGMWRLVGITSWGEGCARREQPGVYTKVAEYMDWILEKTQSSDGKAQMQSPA
# UniProt P03952, 20-390 partner limits assumed: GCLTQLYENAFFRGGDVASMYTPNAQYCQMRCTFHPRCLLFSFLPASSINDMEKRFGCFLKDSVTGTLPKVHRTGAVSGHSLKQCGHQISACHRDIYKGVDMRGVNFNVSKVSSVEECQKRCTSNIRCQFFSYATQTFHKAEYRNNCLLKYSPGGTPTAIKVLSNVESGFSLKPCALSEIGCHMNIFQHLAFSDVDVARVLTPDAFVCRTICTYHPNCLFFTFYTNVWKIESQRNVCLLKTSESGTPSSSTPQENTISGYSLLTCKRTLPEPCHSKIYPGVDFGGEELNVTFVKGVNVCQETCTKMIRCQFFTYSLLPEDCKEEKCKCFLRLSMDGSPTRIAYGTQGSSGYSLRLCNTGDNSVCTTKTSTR
# Tests used:
# human factor XIa = human factor XIa (Homo sapiens, UniProt P03951); test: Factor XIa Assay; conditions: read-out: FXIa IC50; human factor XIa 0.04 nM, substrate GPR-AFC, 30 min pre-incubation at 25° C., pH 7.4
# Protocol: (§1) The effectiveness of a compound of the present invention as an inhibitor of Coagulation factor XIa can be determined using a relevant purified serine protease, and an appropriate synthetic substrate. The rate of hydrolysis of the chromogenic or fluorogenic substrate by the relevant serine protease was measured both in the absence and presence of compounds of the present invention. Assays were conducted at rt or at 37° C. […] A decrease in the rate of fluorescence change in the presence of inhibitor is indicative of enzyme inhibition. Such methods are known to one skilled in the art. The results of this assay are expressed as the half-maximal inhibitory concentrations (IC50), or the inhibitory constant, Ki.
# Compounds were pre-incubated for 30 min at 25° C. with human (0.04 nM) factor XIa in 50 mM HEPES buffer with 150 mM sodium chloride, 5 mM calcium chloride, 0.1% PEG 8000, pH 7.4. factor XIa enzymatic activity was determined by addition of the substrate glycine-proline-arginine-7-amido-4-trifluoromethylcoumarin (GPR-AFC) and measurement of the fluorescence at 400/505 nm after a 60 min incubation at 25° C. The % inhibition for each data point was calculated from the data and analyzed using the log (inhibitor) vs. response four parameters equation to determine the half-maximal inhibitory concentrations (IC50). […]
# Human plasma kallikrein = Human plasma kallikrein (Homo sapiens, UniProt P03952); test: Plasma Kallikrein Assay; conditions: read-out: Plasma Kallikrein IC50; purified Human plasma kallikrein 0.5 nM, substrate Acetyl-K-P-R-AFC, pH 7.4
# Protocol: as §1, with “plasma kallikrein” for “Coagulation factor XIa”, “Ki. […]” for “Ki.”
# Activity assays were performed by diluting a stock solution of substrate at least tenfold to a final concentration ≤0.2 Km into a solution containing enzyme or enzyme equilibrated with inhibitor. Times required to achieve equilibration between enzyme and inhibitor were determined in control experiments. The reactions were performed under linear progress curve conditions and fluorescence increase measured at 405 Ex/510 Em nm. […] IC50 was determined by inflection point from a four parameter logistic curve fit. Ki was calculated using the Cheng Prusoff equation, Ki=IC50/(1+([S]/Km)).
smiles,measurement,setting,value
O=C(Nc1cnn(Cc2cnc(N3CCC3)nc2)c1)c1cncc(-c2c(C(F)(F)F)ccc(Cl)c2F)n1,IC50,human factor XIa,538 nM
same,IC50,Human plasma kallikrein,22.2 nM
